Reference: US20220002435A1 (IMMUNOME, published 2022)

What was measured:
[1] = target: T1, human EPN1 expressed by human cell lines (human, UniProt Q9Y6I3 1-576); experiment: flow cytometry, FLO1 cells (human tumor line)
T1 construct: Endogenous EPN1 of human tumour and normal cell lines, stained on live cells or on fixed and permeabilised cells, or immunoprecipitated; The cell lines were not engineered to express it; also called surface EPN1; huEPN1
T1 sequence: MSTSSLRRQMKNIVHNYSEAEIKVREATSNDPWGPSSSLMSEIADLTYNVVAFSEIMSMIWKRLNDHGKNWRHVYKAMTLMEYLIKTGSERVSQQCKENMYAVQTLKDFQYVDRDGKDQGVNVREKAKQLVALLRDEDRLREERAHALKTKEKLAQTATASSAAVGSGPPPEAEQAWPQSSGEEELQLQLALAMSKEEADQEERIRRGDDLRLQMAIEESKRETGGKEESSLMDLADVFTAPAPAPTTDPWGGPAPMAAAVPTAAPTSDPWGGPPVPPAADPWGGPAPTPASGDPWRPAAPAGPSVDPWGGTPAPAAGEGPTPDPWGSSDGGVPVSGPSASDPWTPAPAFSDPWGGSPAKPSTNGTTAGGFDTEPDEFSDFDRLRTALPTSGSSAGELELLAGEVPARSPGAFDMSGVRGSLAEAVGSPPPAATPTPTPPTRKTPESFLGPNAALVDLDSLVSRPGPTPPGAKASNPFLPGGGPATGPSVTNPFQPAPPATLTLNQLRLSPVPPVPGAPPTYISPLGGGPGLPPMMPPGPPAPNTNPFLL

[2] = target: T1, human EPN1 expressed by human cell lines; experiment: flow cytometry, Calu6 cells (human tumor line)

MFI (fold mean fluorescence index above isotype control) [1]: 6 fold | MFI (fold mean fluorescence index above isotype control) [2]: 6 fold
B1: IMM20059 (antibody, human IgG1, kappa, V domains shown)
VH: EVQLVESGGGLVQPGGSLRLSCAASGFTFSIHSLNWVRQAPGKGLEWVSYISSNSTTIYYADSVKGRFTISRDNAKDSLYLQMNSLRDEDTAVYYCARDYYCTGGTCFFLPDLWGRGALVTVSS
VL: EIVLTQSPATLSLSPGERATLSCRASQNISNFLAWYQHKPGQAPRLLIYDASIRATGIPARFSGSGSGTDFSLTISSLEPEDFAVYFCQQRYNWLTFGGGTKVEIKR
